Results: patent US12479830B2, “Homopiperazinyl and homopiperidinyl quinazolin-4(3H)-one derivatives having multimodal activity against pain” (ESTEVE PHARMACEUTICALS, S.A., priority 2019, dated 2025)

Sequences of proteins named here, by UniProt entry; tags and fusion partners are left off. A change or cut given only in a name is not applied to a line headed by its entry. Residues count along the entry.
UniProt Q99720, whole entry: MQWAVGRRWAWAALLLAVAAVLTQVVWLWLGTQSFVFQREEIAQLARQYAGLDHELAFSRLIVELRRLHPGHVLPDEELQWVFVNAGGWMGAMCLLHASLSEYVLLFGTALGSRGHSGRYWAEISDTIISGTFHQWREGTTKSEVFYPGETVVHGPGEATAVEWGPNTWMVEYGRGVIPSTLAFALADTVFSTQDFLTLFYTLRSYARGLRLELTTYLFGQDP
UniProt P54289, 25-1103 limits assumed: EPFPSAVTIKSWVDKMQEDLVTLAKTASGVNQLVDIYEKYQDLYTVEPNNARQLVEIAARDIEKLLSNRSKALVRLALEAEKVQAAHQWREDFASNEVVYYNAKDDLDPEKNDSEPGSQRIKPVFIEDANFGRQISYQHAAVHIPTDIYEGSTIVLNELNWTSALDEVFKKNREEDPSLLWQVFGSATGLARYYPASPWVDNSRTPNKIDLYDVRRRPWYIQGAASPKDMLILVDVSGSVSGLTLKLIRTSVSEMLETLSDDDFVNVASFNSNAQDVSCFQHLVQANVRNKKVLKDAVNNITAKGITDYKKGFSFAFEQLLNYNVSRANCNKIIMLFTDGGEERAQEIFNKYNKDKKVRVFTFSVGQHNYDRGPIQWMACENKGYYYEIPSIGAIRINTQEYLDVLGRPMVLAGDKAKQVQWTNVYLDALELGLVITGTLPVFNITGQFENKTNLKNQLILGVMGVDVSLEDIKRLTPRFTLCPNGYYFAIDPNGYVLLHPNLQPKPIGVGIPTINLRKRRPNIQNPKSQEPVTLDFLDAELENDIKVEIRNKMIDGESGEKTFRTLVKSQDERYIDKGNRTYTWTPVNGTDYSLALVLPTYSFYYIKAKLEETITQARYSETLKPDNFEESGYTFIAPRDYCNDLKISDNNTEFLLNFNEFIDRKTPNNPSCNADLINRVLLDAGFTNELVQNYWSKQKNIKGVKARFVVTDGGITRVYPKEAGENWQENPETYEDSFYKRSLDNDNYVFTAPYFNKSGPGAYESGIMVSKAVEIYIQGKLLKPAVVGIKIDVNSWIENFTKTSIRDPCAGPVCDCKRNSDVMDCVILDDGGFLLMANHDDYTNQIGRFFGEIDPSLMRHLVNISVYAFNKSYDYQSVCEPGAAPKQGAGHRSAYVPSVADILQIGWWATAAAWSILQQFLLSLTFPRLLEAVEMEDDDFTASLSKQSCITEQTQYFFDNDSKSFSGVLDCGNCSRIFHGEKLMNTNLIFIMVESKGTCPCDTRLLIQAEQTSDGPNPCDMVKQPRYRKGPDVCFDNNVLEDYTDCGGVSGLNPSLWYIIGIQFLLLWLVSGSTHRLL

What was measured:
Human σ1 receptor = Human σ1 receptor (Homo sapiens, UniProt Q99720); test: Human σ1 receptor radioligand assay ([3H](+)-pentazocine binding); settings: read-out: σ1 binding; binding to the σ1 receptor, expressed as Ki class; + also covers inhibition between 1% and 50%
Description: Human σ1 Receptor Radioligand Assay
Transfected HEK-293 membranes (7 μg) were incubated with 5 nM of [^3H](+)-pentazocine in assay buffer containing Tris-HCl 50 mM at pH 8. NBS (non-specific binding) was measured by adding 10 μM haloperidol. The binding of the test compound was measured at either one concentration (% inhibition at 1 or 10 μM) or five different concentrations to determine affinity values (Ki). Plates were incubated at 37° C. for 120 minutes. After the incubation period, the reaction mix was then transferred to MultiScreen HTS, FC plates (Millipore), filtered and plates were washed 3 times with ice-cold 10 mM Tris-HCL (pH7.4). Filters were dried and counted at approximately 40% efficiency in a MicroBeta scintillation counter (Perkin-Elmer) using EcoScint liquid scintillation cocktail.

[1] = biological target: Human α2δ-1 subunit of Cav2.2 calcium channel (Homo sapiens, UniProt P54289); test: Human α2δ-1 subunit of Cav2.2 calcium channel assay ([3H]-gabapentin binding); settings: read-out: α2δ-1 binding; binding to the α2δ-1 subunit of voltage-gated calcium channels, expressed as Ki class; + also covers inhibition between 1% and 50%
Description: Human α2δ-1 Subunit of Cav2.2 Calcium Channel Assay
Human α2δ-1 enriched membranes (2.5 μg) were incubated with 15 nM of radiolabeled [^3H]-Gabapentin in assay buffer containing Hepes-KOH 10 mM. pH 7.4. NSB (non specific binding) was measured by adding 10 μM pregabalin. The binding of the test compound was measured at either one concentration (% inhibition at 1 or 10 μM) or five different concentrations to determine affinity values (Ki). After 60 min incubation at 27° C., binding reaction was terminated by filtering through Multiscreen GF/C (Millipore) presoaked in 0.5% polyethyleneimine in Vacuum Manifold Station, followed by 3 washes with ice-cold filtration buffer containing 50 mM Tris-HCl, pH 7.4. Filter plates were dried at 60° C. for 1 h and 30 μL of scintillation cocktail were added to each well before radioactivity reading. Readings were performed in a Trilux 1450 Microbeta radioactive counter (Perkin Elmer).

SMILES | Ki (Human σ1 receptor) | Ki [1]
CCC[C@H](c1nc2ccc(Br)cc2c(=O)n1CC)N1CCN(C)C[C@H](CC)C1 | > 1 µM | < 0.5 µM
CCC[C@@H](c1nc2ccc(Br)cc2c(=O)n1CC)N1CCN(C)C[C@@H](CC)C1 | > 1 µM | > 5 µM
CCC[C@H](c1nc2ncc(F)cc2c(=O)n1CC)N1CCCN(C)CC1 | > 1 µM | < 0.5 µM
CCC[C@@H](c1nc2ccc(Br)cc2c(=O)n1CC)N1CCN(C)C[C@H](CC)C1 | 0.5 to 1 µM | > 5 µM
CCC[C@H](c1nc2ccc(Br)cc2c(=O)n1CC)N1CCN(C)C[C@@H](CC)C1 | < 0.5 µM | < 0.5 µM
